Literature values as cited in patent US20110130466A1, “USE OF RASAGILINE FOR THE TREATMENT OF PROGRESSIVE SUPRANUCLEAR PALSY” (priority 2009, published 2011).

Sequences of proteins named here, by UniProt entry; tags and fusion partners are left off.
UniProt P27338, whole entry: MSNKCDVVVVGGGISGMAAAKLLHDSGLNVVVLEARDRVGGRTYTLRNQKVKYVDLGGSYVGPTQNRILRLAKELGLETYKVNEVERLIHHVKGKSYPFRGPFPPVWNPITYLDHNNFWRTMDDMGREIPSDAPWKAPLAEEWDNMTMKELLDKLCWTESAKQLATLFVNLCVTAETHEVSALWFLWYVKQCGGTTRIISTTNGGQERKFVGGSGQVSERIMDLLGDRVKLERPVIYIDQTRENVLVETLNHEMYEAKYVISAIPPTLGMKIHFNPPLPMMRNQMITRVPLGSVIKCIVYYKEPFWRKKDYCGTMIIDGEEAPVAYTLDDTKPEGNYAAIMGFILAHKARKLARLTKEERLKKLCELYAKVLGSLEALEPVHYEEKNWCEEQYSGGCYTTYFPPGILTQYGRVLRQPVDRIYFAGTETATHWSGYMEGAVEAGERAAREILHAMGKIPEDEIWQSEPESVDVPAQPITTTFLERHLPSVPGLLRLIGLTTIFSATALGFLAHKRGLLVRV

Target: monoamine oxidase (MAO) B (Homo sapiens, UniProt P27338)
Conditions: Finberg et al. 2002; cited from earlier work

## C#CCN[C@@H]1CCc2ccccc21 [rasagiline, R(+)-N-propargyl-1-aminoindan]
  MAO B inhibitor activity: potent
